Test results as given in patent US5300498A, “6-piperazinyl-1H-pyrazolo[3,4-b]pyridine-3-carboxylic acids, esters, amides and related compounds” (Hoechst-Roussel Pharmaceuticals Incorporated, priority 1993, dated 1994).

System: serotonin (5HT) uptake
Test: [^3 H]-Serotonin Uptake in Rat Whole Brain and Hypothalamic Synaptosomes
Type: biochemical, rat (male CR Wistar)
Details: 50 nM [^3 H]-5HT, 37° C., 5 minutes, read-out: Inhibition of Serotonin Uptake, IC50
Method: [^3 H]-Serotonin Uptake in Rat Whole Brain and Hypothalamic Synaptosomes
A. Animals: Male CR Wistar rats (100-125 g).
1. Krebs-Henseleit Bicarbonate Buffer, pH 7.4 (KHBB):
Prior to use add to 200 ml, per assay:
Make a 4 liter batch, containing the following salts:
3. Sucrose solution: 0.32M sucrose containing 5 mM HEPES and 0.1 mM EDTA; pH to 7.3 using Tris base.
4. A 0.1 mM stock solution of serotonin creatinine SO4 is made up in 0.01N HCl. This is used to dilute the specific activity of the radiolabeled 5HT.
The final desired concentration of [^3 H]-5HT in the assay is 50 nM. The dilution factor is 0.8.
6. For most assays, a 0.5 mM stock solution of the test compound is made up initially in either 10 μl of glacial acetic acid, 100 μl DMSO or 10 μl of the recrystallization solvent, to which is added approximately 10 ml of distilled water. Compounds are initially screened in duplicate at 3 concentrations (10^-8, 10^-7 and 10^-6 M) made up in water.
43, 1114 (1984) and Dunkley, P. R., Jarvie, R. E., Heath, J. W., Kidd, G. J., Rostas, J. A. P. Brain Research 372, 115 (1986). Male Wistar rats are decapitated and the brain rapidly removed. […] The following procedures are performed on ice. Homogenization should be done with 4-5 up and down strokes at medium speeds (setting 4.5 to 5) to minimize synaptosome lysis. […]

## CN(C)CCC=C1c2ccccc2CCc2ccccc21 [Amitriptyline, reference compound]
  IC50: 91 nM
